Screening data as filed in PubChem BioAssay.
A selection: hits, their analogues and other compounds. The true share with any hit is near 4.2%.
ALR inh: inhibitors of human sulfhydryl oxidase ALR; AID 485317; inhibition, % (no concentration beside the values); purified ALR, DTT oxidation, H2O2 HRP-luminol luminescence; hit rate 3.8% among 290,000;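 active means mean and each replicate at 75% or more; inconclusive means only one of the two met; inactive means neither met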;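 further: stock transfer was 7.5 nL into about 7.5 µL; 0% = neutral wells and 100% = wells with inactivated enzyme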
MC4R antag cAMP: blocks human MC4R cAMP signaling. MC4R-expressing cells, MTII-stimulated cAMP, LANCE TR-FRET. inhibition, % at 6.5 µM. actives 0.48% (n = 360,000);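 active = inhibition above its plate's cutoff, the mean of tested wells on that plate plus 3 SD, cut at about 29% in these data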;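 also: 0% = Melanotan II alone and 100% = Melanotan II plus saturating MCL0020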
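Material – human MC4R-expressing U2OS cells · Repeats – no replicates · Detection – TR-FRET with Eu-cAMP and labeled anti-cAMP, 671 nm · Times – compound 30 min, challenge 1 h, detection 1 h · Compound – single nominal compound dose of 6.5 µM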
Yeast UUG start: alters start codon recognition fidelity in yeast | S. cerevisiae UUG-firefly luciferase reporter, luminescence/redox ratio | activity score, % at 18.7 µM | hit rate 0.13% among 350,000 | AID 602363;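 active means replicate mean at a twofold rise or more, about +100% in these data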;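 further: firefly luciferase made from a UUG start codon reports start codon fidelity; reporter light over untreated wells divided by growth signal over untreated wells; some hits fall short of that in this replicate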
MC4R barr agon: activates human MC4R beta-arrestin recruitment; P32245; U2OS MC4R beta-arrestin complementation, luminescence; percent of melanotan II response, DMSO zero; activation, % at 8.9 µM; actives 0.98% (n = 360,000);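 active = activation above a per-plate cutoff, the mean activation of sample wells on that plate plus 3 SD, cut at about 8% in these data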
HDAC3 inh: inhibitors of human histone deacetylase 3; O15379; recombinant HDAC3, fluorogenic peptide/trypsin coupled, fluorescence; inhibition, % at 8.3 µM; actives 0.15% (n = 320,000); in the data active = inhibition above about 26%, passing the limit was not always enough
NALP1 inh: NALP1 inhibition; S. cerevisiae NALP1/ASC/caspase-1 growth, X-gal OD620, 72 h; inhibition, % at 10 µM; actives 0.61% (n = 280,000); AID 2071; in the data active = inhibition mostly above about 24%, no sharp cut-off; inactive = mostly below about 32%
* = called active by the depositor; / = no result.

Labels used below: A = ALR inh; B = MC4R antag cAMP; C = Yeast UUG start; D = MC4R barr agon; E = HDAC3 inh; F = NALP1 inh
1	Cc1noc(C)c1S(=O)(=O)Nc1ccc2c(c1)C(=O)N([C@@H](C)CO)C[C@H](C)[C@@H](CN(C)S(=O)(=O)c1ccccc1)OCCCC[C@@H](C)O2
  A = /; B = /; C = 16; D = /; E = /; F = /

2	NC(N)=N/N=C/c1ccc(OCc2ccccc2Cl)cc1
  A = 0; B = 2; C = -13; D = 22*; E = 11; F = 28*

3	c1ccc(CNc2ccc(N3CCOCC3)cc2)cc1
  A = 99*; B = -3; C = -26; D = -2; E = 3; F = /

4	COc1ccc(CNc2ccc(N3CCOCC3)cc2)cc1
  A = 99*; B = 1; C = 0; D = -1; E = -5; F = 18

5	c1ccc(N2CCOCCOCCOCCOCCOCC2)cc1
  A = 96*; B = -2; C = /; D = -2; E = 4; F = -10

6	COc1ccc(OCC(=O)Nc2ccc(N3CCOCC3)cc2)cc1
  A = -15; B = 1; C = -15; D = -1; E = -1; F = 11

7	c1ccc2c(Nc3ccc(N4CCOCC4)cc3)nc(N3CCOCC3)nc2c1
  A = 92*; B = 2; C = -4; D = -2; E = -4; F = 17

8	O=C(C[C@H]1CC[C@@H]2[C@H](COC[C@@H](O)CN2Cc2ccccc2F)O1)NCc1ccccc1F
  A = /; B = /; C = -6; D = /; E = /; F = /

9	COc1cccc(CNC(=O)C[C@@H]2C=C[C@@H](NC(C)=O)[C@@H](CO)O2)c1
  A = /; B = /; C = -6; D = /; E = /; F = /

10	CCOc1ccc(OCCn2c(=S)[nH]c3c(N)ncnc32)cc1
  A = 91*; B = 10; C = -4; D = -3; E = -3; F = -10

11	COCC(=O)N1C[C@H](C)[C@@H](OC)CN(C)C(=O)c2ccc(NC(=O)c3ccc(F)cc3)cc2OC[C@H]1C
  A = /; B = /; C = 10; D = /; E = /; F = /

12	Clc1ccc(/C(Cc2nc3ccccc3[nH]2)=N\Nc2ccccc2)cc1
  A = -7; B = 4; C = /; D = 0; E = -1; F = 28*

13	O=C(Cc1nc2ccccc2[nH]1)c1ccc(Cl)cc1
  A = 0; B = 1; C = -21; D = 0; E = 5; F = 5

14	COC(=O)Nc1ccc2c(c1)Nc1ccccc1CC2
  A = 98*; B = 3; C = 1; D = 0; E = 6; F = 2

15	CC(=O)Nc1ccc2c(c1)NC(=O)CC2
  A = -8; B = 10; C = /; D = 2; E = 1; F = 18

16	N#CC(C#N)=C1CCc2ccccc2N1
  A = /; B = -6; C = -13; D = -1; E = 1; F = -2

17	Nc1ccc2c(c1)Nc1ccccc1CC2
  A = 99*; B = 11; C = /; D = 1; E = 6; F = 0

18	N#Cc1ccc(-c2ccc([C@H]3[C@H](CO)N4CCCCN(S(=O)(=O)c5ccccc5)C[C@@H]34)cc2)cc1
  A = /; B = /; C = -7; D = /; E = /; F = /

19	COc1ccc(/C=N/NC(=O)c2cc[n+]([O-])cc2)cc1O
  A = 99*; B = -14; C = -20; D = 0; E = 7; F = -28

20	COc1cc(/C=N\NC(=O)c2ccc(C)nc2)ccc1OC(=O)c1cccc(F)c1
  A = -3; B = 6; C = -10; D = 9.1*; E = 8; F = -3

21	COc1ccc(/C=N/NC(=O)c2ccoc2C)cc1OC
  A = /; B = 15; C = /; D = -1; E = 3; F = 18

22	Cn1cnnc1SCc1ccc(C(=O)N/N=C(\CCC(=O)O)c2ccc(C(C)(C)C)cc2)cc1
  A = 98*; B = 6; C = -7; D = -2; E = -2; F = 30

23	Cc1ccc(C(=O)N/N=C\c2ccc(OC(=O)c3cccc(F)c3)cc2)cn1
  A = 2; B = -7; C = -24; D = 0; E = -1; F = 13

24	COc1ccc(/C=N/NC(=O)c2ccoc2C)cc1O
  A = 99*; B = 5; C = /; D = 2; E = 1; F = -51

25	CCC/C(=N\NC(=O)c1ccc(CSc2nncn2C)cc1)c1ccccc1
  A = -46; B = 16; C = /; D = -2; E = -10; F = 5

26	CC(C)NC(=O)N(C)C[C@H]1Oc2ccc(NC(=O)CCC(F)(F)F)cc2C(=O)N([C@H](C)CO)C[C@H]1C
  A = /; B = /; C = -2; D = /; E = /; F = /

27	CCS(=O)(=O)N[C@H]1CC[C@@H](CC(=O)NCc2ccc(F)cc2)O[C@@H]1CO
  A = /; B = /; C = -8; D = /; E = /; F = /

28	C[C@@H]1CN([C@H](C)CO)S(=O)(=O)c2ccc(-c3ccc(C(=O)N(C)C)cc3)cc2O[C@H]1CN(C)C(=O)Nc1ccccc1F
  A = /; B = /; C = 2; D = /; E = /; F = /

29	O=C(C[C@H]1CC[C@@H](NC(=O)C2CCC2)[C@@H](CO)O1)NCCCN1CCOCC1
  A = /; B = /; C = -6; D = /; E = /; F = /

30	COc1ccc(/C=N/NC(=O)c2ccc(C)nc2)cc1O
  A = 97*; B = 1; C = 1; D = -1; E = 4; F = 16

An excerpt of these results, with two lines to a compound.
Values in the order – ALR inh	MC4R antag cAMP	Yeast UUG start	MC4R barr agon	HDAC3 inh	NALP1 inh
(4) COc1ccc(CNc2ccc(N3CCOCC3)cc2)cc1
  99*	1	0	-1	-5	18
(13) O=C(Cc1nc2ccccc2[nH]1)c1ccc(Cl)cc1
  0	1	-21	0	5	5
(29) O=C(C[C@H]1CC[C@@H](NC(=O)C2CCC2)[C@@H](CO)O1)NCCCN1CCOCC1
  /	/	-6	/	/	/

Continuation.
Labels used below: A = ALR inh; B = MC4R antag cAMP; C = Yeast UUG start; D = MC4R barr agon; E = HDAC3 inh; F = NALP1 inh
31	COc1ccc(/C=N/NC(=O)c2ccc(CSc3nc(C)cc(C)n3)cc2)cc1O
  A = 77*; B = -8; C = /; D = 0; E = 6; F = 15

32	COc1cc(/C=N/NC(=O)c2ccc(CSc3nncn3C)cc2)cc(OC)c1O
  A = 100*; B = -7; C = /; D = -1; E = 6; F = -6

33	COc1ccc(/C=N\NC(=O)c2ccc(=O)[nH]n2)cc1O
  A = 100*; B = 2; C = -11; D = -1; E = 7; F = -18

34	COc1ccc(/C=N/NC(=O)c2ccc(CSc3nc(C)cc(C)n3)cc2)c(OC)c1OC
  A = /; B = -3; C = /; D = 0; E = 8; F = 31

35	C[C@@H]1CCCCO[C@@H](CN(C)C(=O)C2CCCCC2)[C@H](C)CN([C@@H](C)CO)C(=O)c2cc(NS(C)(=O)=O)ccc2O1
  A = /; B = /; C = 4; D = /; E = /; F = /

36	O=C(Cc1ccncc1)Nc1ccc2c(c1)[C@@H]1C[C@H](CC(=O)N3CCCCC3)O[C@@H](CO)[C@@H]1O2
  A = /; B = /; C = -4; D = /; E = /; F = /

37	Cc1nc(N2CCN(C)CC2)c2c(C)c(C(=O)Nc3ccc(C)c(F)c3)sc2n1
  A = 96*; B = 11; C = -7; D = 5; E = 7; F = 18

38	COc1ccc(N2CCN(C(=O)CCCn3nnnc3CN3CCOCC3)C(C)C2)cc1 (stereo not given)
  A = 99*; B = 7; C = -7; D = -1; E = -3; F = 17

39	CCOC(=O)CC1CCCCN1C(=O)CCCn1nnnc1CN1CCOCC1 (stereo not given)
  A = 0; B = 11; C = -14; D = 1; E = -3; F = 12

40	O=C(C[C@H]1C=C[C@@H](NC(=O)Cc2ccccn2)[C@@H](CO)O1)NCCCN1CCOCC1
  A = /; B = /; C = 4; D = /; E = /; F = /

41	Cc1ccc(C(=O)NCC(=O)OCC(=O)c2ccc3c(c2)OCCO3)cc1C
  A = 5; B = 4; C = -3; D = -1; E = 5; F = 4

42	COc1ccc(C(=O)NCC(=O)OCC(=O)c2ccc3c(c2)OCCO3)cc1
  A = -2; B = 6; C = -19; D = -2; E = -1; F = 36*

43	O=C(CC(SCCO)c1ccc(F)cc1)c1ccco1 (stereo not given)
  A = 89*; B = 0; C = -13; D = 0; E = 5; F = 7

44	O=C(N[C@@H]1CC[C@@H](CCNC(=O)C2CC2)O[C@H]1CO)c1ccncc1
  A = /; B = /; C = -5; D = /; E = /; F = /

45	COc1cccc(CN2CCC(Oc3ccc(C(=O)N4CCCCC4)cc3)CC2)c1O
  A = 84*; B = 3; C = -12; D = -3; E = 0; F = 16

46	O=C(O)C[C@@H]1CC[C@@H](NC(=O)c2ccccc2F)[C@@H](CO)O1
  A = /; B = /; C = -8; D = /; E = /; F = /

47	C[C@H](O)C#Cc1cnc2c(c1)C(=O)N([C@@H](C)CO)C[C@H](C)[C@H](CN(C)C(=O)CC1CC1)O2
  A = /; B = /; C = -4; D = /; E = /; F = /

48	O=C1NC(=O)C(=Cc2ccccc2)N1
  A = /; B = 4; C = -28; D = 2; E = /; F = /

49	CN(C)c1ccc(/C=C2/NC(=O)NC2=O)cc1
  A = 99*; B = -29; C = /; D = -1; E = 1; F = 18

50	CCC(=O)Nc1ccc2c(c1)C(=O)N(C)[C@H]1CC[C@@H](CC(=O)N[C@@H](C)c3ccccc3)O[C@H]1CO2
  A = /; B = /; C = -27; D = /; E = /; F = /
